One substance from patent publication US6074845A (priority 1999, dated 2000) can be followed below.

By UniProt entry, the sequences of proteins in these tests, tags left out. Residues count along the entry.
UniProt A6QP74, 23-462: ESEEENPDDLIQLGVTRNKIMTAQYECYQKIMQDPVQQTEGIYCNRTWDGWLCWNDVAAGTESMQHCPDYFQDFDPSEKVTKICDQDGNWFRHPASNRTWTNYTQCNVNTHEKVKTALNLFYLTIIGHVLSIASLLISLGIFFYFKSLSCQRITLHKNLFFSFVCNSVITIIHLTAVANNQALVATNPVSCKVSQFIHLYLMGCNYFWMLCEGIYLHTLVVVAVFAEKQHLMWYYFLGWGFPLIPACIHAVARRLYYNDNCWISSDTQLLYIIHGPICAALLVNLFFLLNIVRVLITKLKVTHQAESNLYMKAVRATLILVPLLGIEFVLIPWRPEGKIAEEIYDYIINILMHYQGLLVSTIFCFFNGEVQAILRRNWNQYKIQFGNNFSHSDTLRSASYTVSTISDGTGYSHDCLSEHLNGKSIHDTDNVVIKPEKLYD

Experiment [1] concerns the target T1, BECRLR (bovine calcitonin receptor-like receptor) (Bos taurus, UniProt A6QP74).
T1 construct: amplify the open reading frame of the novel bovine CRLR cDNA; expressed in transfected cells; also transient transfection
In words: Competition binding, displacement of [125I] rADM from BECRLR membranes. The following applies: [125I] rADM displacement, BE-CRLR membranes. The procedure:
(§1) Cells from BECRLR-293 were scraped into ice-cold PBS and centrifuged for 10 min at 1000× g at 4° C. The pellet was resuspended in 10 mM Tris-HCl, pH 7.4, 10 mM Na-EDTA and homogenized using a Dounce ground glass homogenizer. The homogenate was centrifuged for 20 min at 12,000× g at 4° C. and the resultant membrane pellet was resuspended in 50 mM Tris-HCl, pH 7.4, 10 mM MgCl2 and recentrifuged. The final pellet was resuspended in 50 mM Tris-HCl, pH 7.4, 10 mM MgCl2 and assayed immediately.
Saturation binding experiments were carried out using membranes prepared from BECRLR-293 cells pretreated in the absence or presence of ADM. The incubation mixture contained various concentrations of [^125 I] ADM (5 to 120 pM) and 40-60 μg of membrane protein in a final volume of 500 ul. Nonspecific binding was determined in the presence of 1 μM r ADM. After incubating for 30 min at 25° C., the reaction mixture was rapidly diluted with cold 0.9% NaCl and bound and free ligands were separated by filtration on glass fiber filters. […]
(§2) HEK293 cells transiently transfected with this clone responded to CGRP and ADM […] by stimulating adenylyl cyclase activity (60-80% over basal). This clone has been stably expressed in HEK293 cells using the LipofectAMINE procedure and analyzed for CGRP and ADM-mediated adenylyl cyclase activity. […]
In general terms: Loss of bound radioactivity is the signal in a displacement assay; it reports binding, not function.

Experiment [2] deals with T1, BECRLR (bovine calcitonin receptor-like receptor). In words: Inhibition of ADM-activated adenylyl cyclase activity (antagonism) in BECRLR-293 membranes. It counts as biochemical. Particulars: BECRLR #8. The procedure:
as §1
Membrane-bound adenylyl cyclase activity was determined. […] [^32 P]cAMP was separated using sequential chromatography as the rate of conversion of [(α^32 P]ATP to [^32 P]cAMP on Dowex and alumina columns (33). Adenylyl cyclase activities were determined in the absence (basal) or presence of various concentrations of rat ADM or hαCGRP (1 pM to 1 μM). The effect of ADM (22-52), ADM (26-52) and hαCGRP(8-37), on ADM-mediatedactivation of adenylyl cyclase was also determined.
as §2

One may read the IC50 as the concentration at which inhibition is half-maximal. For the substance CGRP (8-37), in experiment [1], the “displacement of [125I] rADM binding, potency in words” value was “less potent”. The IC50 in experiment [2] was found to be 2200 nM.
